# Laboratory results from PubChem BioAssay AID720582 (The Scripps Research Institute Molecular Screening Center, 2013).
# Sequences of proteins named here, by UniProt entry; tags and fusion partners are left off. A change or cut given only in a name is not applied to a line headed by its entry.
# UniProt O14672: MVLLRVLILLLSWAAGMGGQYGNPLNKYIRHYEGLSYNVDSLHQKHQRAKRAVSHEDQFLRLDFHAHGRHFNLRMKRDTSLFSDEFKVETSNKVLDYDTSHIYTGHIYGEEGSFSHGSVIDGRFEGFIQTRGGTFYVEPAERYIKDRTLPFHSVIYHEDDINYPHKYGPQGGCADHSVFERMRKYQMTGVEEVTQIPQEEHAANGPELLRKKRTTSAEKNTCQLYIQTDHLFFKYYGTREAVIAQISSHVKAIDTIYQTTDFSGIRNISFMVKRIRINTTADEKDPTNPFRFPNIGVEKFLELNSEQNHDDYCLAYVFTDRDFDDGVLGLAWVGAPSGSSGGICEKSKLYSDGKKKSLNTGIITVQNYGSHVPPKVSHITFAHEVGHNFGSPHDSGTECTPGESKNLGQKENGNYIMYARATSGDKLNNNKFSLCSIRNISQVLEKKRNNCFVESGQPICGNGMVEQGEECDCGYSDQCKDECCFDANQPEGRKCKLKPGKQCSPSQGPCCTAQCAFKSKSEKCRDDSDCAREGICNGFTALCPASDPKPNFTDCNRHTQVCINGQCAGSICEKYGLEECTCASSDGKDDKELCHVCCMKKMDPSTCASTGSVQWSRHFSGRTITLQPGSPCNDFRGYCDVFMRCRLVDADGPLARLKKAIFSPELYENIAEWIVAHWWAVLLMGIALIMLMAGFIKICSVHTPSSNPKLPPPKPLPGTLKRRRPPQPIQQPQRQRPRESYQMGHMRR
# The entries are a selection whose mix differs from that of the whole data set. Calls of active or inactive are those of the source.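 Rule for the calls: active = inhibition above a per-campaign cutoff equal to the mean of compounds falling between control-based bounds plus 3 SD (cut at about 20% in these data); inactive = the rest.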
# Target: Disintegrin and metalloproteinase domain-containing protein 10 (Homo sapiens) (UniProt O14672)
# Test: human ADAM10 inhibitors, primary screen, biochemical, QFRET, HTS (AID 720582);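 note: 0% = DMSO wells while the 100% control is not disclosed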
# Details: recombinant ADAM10, EDANS/DABCYL FRET peptide cleavage, 3 h; at 7 µM; active compounds read high
row,Compound,inhibition
1,COP(=O)(OC)N1CC1c1ccccc1 (stereo unspecified),inactive: 8.69%
2,CCCCOc1ccc(C(=O)NCC2(N3CCCCC3)CCCCC2)cc1OC,inactive: -7.61%
3,Cc1cc(SC(NC(=O)c2ccccc2)C(Cl)(Cl)Cl)nc(C(C)C)n1 (stereo unspecified),inactive: -3.02%
4,CCOC(=O)Nc1ccc([As](=O)(O)O)c(O)c1,inactive: 1.41%
5,O=C(O)C(O)c1ccc(N(CCCl)CCCl)cc1 (stereo unspecified),inactive: 0.77%
6,CC1CCNP(=O)(N(CCCl)CCCl)O1 (stereo unspecified),inactive: 1.96%
7,O=P(Nc1ccccn1)(c1cccc2ccccc12)c1cccc2ccccc12,inactive: 5.27%
8,Cc1cc(SC(NC=O)C(Cl)(Cl)Cl)ncn1 (stereo unspecified),inactive: -6.31%
9,O=[N+]([O-])c1ccc(Nc2ccc(Oc3ccc([N+](=O)[O-])cc3[N+](=O)[O-])cc2)c([N+](=O)[O-])c1,inactive: 2.74%
10,CCOC(=O)Nc1cccc([As](=O)(O)O)c1,inactive: -1.17%
11,O=C(O)C(=O)c1ccc(N(CCCl)CCCl)cc1,inactive: -3.42%
12,O=C(COc1ccccc1)OC1CN2CCC1CC2 (stereo unspecified),inactive: 3.8%
13,O=C(Nc1ccncc1[N+](=O)[O-])c1ccc([N+](=O)[O-])cc1[N+](=O)[O-],inactive: -5.53%
14,COP1(=S)c2c(C)nn(CCC#N)c2N=C(c2ccc(F)cc2)N1C (stereo unspecified),inactive: 4.07%
15,COC(=O)C1(C)COP(=O)(N2CCCC2)OC1 (stereo unspecified),inactive: 5.24%
16,CCC(C)N(CC(C)C)C(=S)SC(NC(C)=O)C(Cl)(Cl)Cl (stereo unspecified),inactive: -6.5%
17,O=C(OC1CN2CCC1CC2)c1cccc([N+](=O)[O-])c1 (stereo unspecified),inactive: -7.82%
18,CCOC(=O)c1ccc(NC(=O)C(C)(CCl)SC)cc1 (stereo unspecified),inactive: 8.95%
19,O=P1(N(CCCl)CCCl)Nc2ccccc2N1,inactive: -33.7%
20,O=P1(N(CCCl)CCCl)OCCCN1CCCl (stereo unspecified),inactive: -3.93%
21,COc1ccc2nc(NP(=O)(c3ccccc3)c3ccccc3)sc2c1,inactive: 0.3%
22,COc1cc(I)ccc1[As](=O)(O)O,inactive: 6.86%
23,Cc1c2c(nc3ccccc13)SC(C(Cl)Cl)C2 (stereo unspecified),inactive: -6.37%
24,O=C(OC1CN2CCC1CC2)C12CC3CC(CC(C3)C1)C2 (stereo unspecified),inactive: 6.09%
25,Cc1cc(=O)[nH]c(N[N+](=O)[O-])n1,inactive: -3.92%
26,O=[N+]([O-])c1cc(Oc2ccc([N+](=O)[O-])cc2C(F)(F)F)cc([N+](=O)[O-])c1,inactive: -19.5%

row,Compound,inhibition
1,COc1ccc(N/C(=N/P(=O)(N2CCOCC2)N2CCOCC2)N2CCOCC2)cc1,inactive: 0.18%
2,[N-]=[N+]=NC1CCCCC1NC(=O)c1cc([N+](=O)[O-])cc([N+](=O)[O-])c1 (stereo unspecified),inactive: 0.56%
3,Cc1ccc(OP(=O)(Nc2ccc([N+](=O)[O-])cn2)Oc2ccc(C)cc2)cc1,inactive: -5.02%
4,Cc1ccc2nc3c(c(C)c2c1)CC(C(Cl)Cl)S3 (stereo unspecified),inactive: -10.4%
5,C[As](=O)(O)c1cccc(C(=O)O)c1,inactive: 5.68%
6,O=[As](O)(c1ccc(O)cc1)c1ccccc1O,inactive: -1.22%
7,O=[N+]([O-])c1ccc(-c2cc([N+](=O)[O-])c(O)c([N+](=O)[O-])c2)cc1,inactive: 5.1%
8,COc1cc(C(=O)NCC2(N3CCOCC3)CCCCC2)ccc1OCC(C)C,inactive: -0.95%
9,CC(C)NC(=O)NP(=O)(Oc1ccccc1)Oc1ccccc1,inactive: -1.2%
10,O=C(OC1CN2CCC1CC2)c1cccc2[nH]cnc12 (stereo unspecified),inactive: -12.8%
11,CCN(CC)C(=S)SC(NC=O)C(Cl)(Cl)Cl (stereo unspecified),inactive: 0.15%
12,ClCCSc1nnc(-c2cccnc2)o1,inactive: 2.13%
13,COC(=O)C1(C)COP(=O)(N2CCCCCC2)OC1 (stereo unspecified),inactive: -4.28%
14,CC(C)c1ccc(OP(=O)(Nc2ccccn2)Oc2ccccc2F)cc1 (stereo unspecified),inactive: -4.11%
15,Nc1ccccc1[As](=O)(O)c1ccccc1,inactive: 0.71%
16,O=C(O)COc1ccc([As](=O)(O)O)cc1[N+](=O)[O-],inactive: 2.29%
17,CCOP1(=S)c2c(C)nn(CCC#N)c2N=C(c2ccccc2F)N1C (stereo unspecified),inactive: 7.02%
18,O=P(Nc1nccs1)(Oc1ccccc1)Oc1ccccc1,inactive: -2.56%
19,N#CCCN(C(=O)COC(=O)C(O)(c1ccccc1)c1ccccc1)c1ccc(F)cc1,inactive: -1.24%
20,CN(C(=O)Cc1ccccc1)[C@@H]1CC[C@]2(CCCO2)C[C@H]1N1CCCC1,inactive: -4%
21,CCOP1(=S)c2c(C)nn(CCC#N)c2N=C(c2ccc(F)cc2)N1C (stereo unspecified),inactive: -7.6%
22,O=[N+]([O-])c1ccc2c(c1)nnn2O,inactive: 1.06%
23,CN(C)C(=O)c1cc([N+](=O)[O-])cc2c1-c1c(cc([N+](=O)[O-])cc1[N+](=O)[O-])C2=O,inactive: -3.1%
24,CN(C(=O)Cc1ccc(Cl)c(Cl)c1)[C@H]1CC[C@@]2(CCCO2)C[C@@H]1N1CCCC1,inactive: -4.8%
25,NC(=O)Nc1ccc([As](=O)(O)O)cc1,inactive: -4.09%
26,Cc1cccc(OCC(=O)OC2CN3CCC2CC3)c1 (stereo unspecified),inactive: 7.72%

row,Compound,inhibition
1,O=[As](O)(c1cccc(O)c1)c1cccc(O)c1,inactive: 0.74%
2,O=C(OC1CN2CCC1CC2)c1ccc(Cl)cc1 (stereo unspecified),inactive: -6.86%
3,O=[As](O)(O)c1cccnc1,inactive: -2.08%
4,COc1cc(C(=O)NCC2(N3CCOCC3)CCCCC2)cc(Cl)c1OC(C)C,inactive: -4.22%
5,CS(=O)(=O)c1ccc(Cl)c(NC(=O)COC(=O)C(O)(c2ccccc2)c2ccccc2)c1,inactive: 9.43%
6,COc1cc(C2NCCC3(OCCO3)C2(C)C)cc(OC)c1OC (stereo unspecified),inactive: -8.37%
7,CCOP(=O)(Nc1cccc2ccccc12)OCC,inactive: -12.7%
8,Nc1cccc2c([As](=O)(O)O)cccc12,inactive: -29.2%
9,Cc1ccc(NCCc2c([N+](=O)[O-])cc([N+](=O)[O-])cc2[N+](=O)[O-])cc1,inactive: 13.6%
10,CCCOP(=S)(Nc1nc(N)cc(=O)[nH]1)OCCC,inactive: 6.98%
11,O=P1(N(CCCl)CCCl)NCCC(C(F)(F)F)O1 (stereo unspecified),inactive: -13.6%
12,Clc1n[nH]nc1-c1nn[nH][15n]1,inactive: 5.76%
13,CC(C)(C)C(=O)NC(Sc1ncccn1)C(Cl)(Cl)Cl (stereo unspecified),inactive: 10.9%
14,O=P1(Nc2ccccn2)COc2ccccc2OC1,inactive: -1.88%
15,CCC1=CC2Cc3nc4ccc(Cl)cc4c(N)c3C(C1)C2 (stereo unspecified),inactive: -21.4%
16,CCOP(=O)(NC(=NC(C)c1ccccc1)NC(C)c1ccccc1)OCC (stereo unspecified),inactive: -2.32%
17,CCOP(=O)(Nc1ccc(C)cn1)OCC,inactive: -6.83%
18,CN(CCCl)Cc1cc(Cl)c(NC2=NCCN2)c(Cl)c1,inactive: 1.9%
19,CC(C)/C=N\N=C(\N)N[N+](=O)[O-],inactive: -3.11%
20,CN(C(=O)Cc1ccc(Cl)c(Cl)c1)[C@@H]1CCCC[C@H]1N1CCCC1,inactive: -10.2%
21,CN(C(=O)Cc1ccc(Cl)c(Cl)c1)C1CCCC[C@@H]1N1CCCC1 (stereo partly specified),inactive: -1.68%
22,CC1(CBr)Cn2c(nc3ccccc3c2=O)S1 (stereo unspecified),inactive: -0.18%
23,COc1ccccc1CNC(=O)COC(=O)C(O)(c1ccccc1)c1ccccc1,inactive: 2.62%
24,CN(C)C1(CNC(=O)c2ccc(S(C)(=O)=O)cc2)CCCCC1,inactive: 0.77%
25,O=C(/C=C/c1ccccc1)OC1CN2CCC1CC2 (stereo unspecified),inactive: -0.51%
26,CCCC1OP(=O)(Nc2ccccc2)OCC1CC (stereo unspecified),inactive: -8.38%

row,Compound,inhibition
1,Cc1nn(-c2ccccc2)c2c1P(=O)(N1CCOCC1)N(C)C(c1ccccc1)=N2 (stereo unspecified),inactive: 1.71%
2,CC1CCC(C(C)C)C(OP(=O)(Nc2ccccn2)c2ccccc2)C1 (stereo unspecified),inactive: 13.6%
3,Cc1ccc(C(=O)OC2CN3CCC2CC3)cc1 (stereo unspecified),inactive: -6.67%
4,Nc1cccc([As](=O)(O)c2ccccc2)c1,inactive: -1.37%
5,O=[As](O)(c1cccs1)c1cccs1,inactive: -2.71%
6,Cc1ccc(OCC(=O)OC2CN3CCC2CC3)cc1 (stereo unspecified),inactive: -2.79%
7,O=P1(Nc2ccc(Br)cn2)COc2ccccc2OC1,inactive: 3.53%
8,NS(=O)(=O)c1cccc(NC(=O)COC(=O)C(O)(c2ccccc2)c2ccccc2)c1,inactive: -3.72%
9,Cc1ccc(S(=O)(=O)N(CCCN)CCCc2c(C)nc(N)[nH]c2=O)cc1,inactive: 4.02%
10,O=P1(Nc2ncccn2)COc2ccccc2OC1,inactive: -9.93%
11,O=P(Nc1nc2ccccc2s1)(c1ccccc1)c1ccccc1,inactive: -5.58%
12,C[C@H]1OP(=O)(Oc2ccccc2)[C@H](O)[C@H](O)[C@H]1N=[N+]=[N-] (stereo partly specified),inactive: -0.87%
13,O=P(Nc1ccccn1)(c1ccc(Br)cc1)c1ccc(Br)cc1,inactive: -10.1%
14,CN(C)C1(CNC(=O)c2ccc(Cl)c(S(N)(=O)=O)c2)CCCCC1,inactive: 3.36%
15,COc1ccc(N)c([N+](=O)[O-])c1[N+](=O)[O-],inactive: -13.3%
16,Nc1ccc(CCCCOc2ccccc2)cc1,inactive: -5.15%
17,O=C(OC1CN2CCC1CC2)c1cccc(Cl)c1 (stereo unspecified),inactive: 12.8%
18,C/C(N)=N\P(=O)(OCc1ccccc1)OCc1ccccc1,inactive: 4.97%
19,C(Cc1nn[nH]n1)Cc1nn[nH]n1,inactive: 5.08%
20,Nc1ccc([As](=O)(O)c2ccc([N+](=O)[O-])cc2)cc1,inactive: -0.94%
21,O=[As](O)(c1ccccc1)c1ccc(O)cc1,inactive: 8.57%
22,O=[N+]([O-])c1ncn(CCn2cnc([N+](=O)[O-])n2)n1,inactive: -5.27%
23,CC(=O)NC(SC(=S)N(C)C)C(Cl)(Cl)Cl (stereo unspecified),inactive: -3.59%
